Source: ChEMBL document CHEMBL1142685, “Novel anticholinesterases based on the molecular skeletons of furobenzofuran and methanobenzodioxepine” (J Med Chem, 2005)

Protein sequences, listed by entry. Tags and fused reporters are not part of them. Lines headed by an entry give the natural chain unless they say otherwise; changes in a name come on top.
UniProt P22303: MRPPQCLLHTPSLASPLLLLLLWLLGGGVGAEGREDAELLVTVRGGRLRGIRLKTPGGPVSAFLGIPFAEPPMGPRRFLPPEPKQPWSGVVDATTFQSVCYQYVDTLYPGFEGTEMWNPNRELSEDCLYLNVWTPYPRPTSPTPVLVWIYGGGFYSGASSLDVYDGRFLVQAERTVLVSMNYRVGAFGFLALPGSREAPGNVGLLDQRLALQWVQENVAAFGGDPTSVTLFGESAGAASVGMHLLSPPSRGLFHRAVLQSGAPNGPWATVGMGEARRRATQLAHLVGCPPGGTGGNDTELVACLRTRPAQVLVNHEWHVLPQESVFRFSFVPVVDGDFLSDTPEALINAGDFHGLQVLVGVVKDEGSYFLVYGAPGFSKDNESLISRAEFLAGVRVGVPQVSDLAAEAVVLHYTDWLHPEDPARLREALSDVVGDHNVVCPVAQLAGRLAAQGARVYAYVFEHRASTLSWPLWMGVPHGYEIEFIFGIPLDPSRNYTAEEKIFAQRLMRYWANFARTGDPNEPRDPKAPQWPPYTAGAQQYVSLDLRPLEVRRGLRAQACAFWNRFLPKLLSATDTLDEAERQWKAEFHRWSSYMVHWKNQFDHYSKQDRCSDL

Biological target: Acetylcholinesterase (Homo sapiens, UniProt P22303)

Work on `CCNC(=O)Oc1ccc2c(c1)C1(C)COC(C1)O2` (stereo unspecified) yielded an IC50 of 830 nM.
